From publication PMC10698194 (Nature Communications, 2023) come the findings set out here.

Chains of the proteins cited; added tags and fusions are not shown.
UniProt P35372, whole entry: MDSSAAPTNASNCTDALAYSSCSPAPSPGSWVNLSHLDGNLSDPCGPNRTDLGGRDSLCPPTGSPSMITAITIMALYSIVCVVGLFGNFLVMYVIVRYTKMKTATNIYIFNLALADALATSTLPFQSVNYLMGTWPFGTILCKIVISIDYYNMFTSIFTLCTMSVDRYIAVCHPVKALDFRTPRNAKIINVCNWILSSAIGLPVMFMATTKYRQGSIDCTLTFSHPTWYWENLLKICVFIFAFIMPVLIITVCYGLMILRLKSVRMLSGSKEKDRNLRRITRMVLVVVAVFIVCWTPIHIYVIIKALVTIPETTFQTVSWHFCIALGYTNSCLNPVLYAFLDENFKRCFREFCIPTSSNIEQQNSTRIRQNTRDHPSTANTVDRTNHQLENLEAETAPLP
UniProt P41143, whole entry: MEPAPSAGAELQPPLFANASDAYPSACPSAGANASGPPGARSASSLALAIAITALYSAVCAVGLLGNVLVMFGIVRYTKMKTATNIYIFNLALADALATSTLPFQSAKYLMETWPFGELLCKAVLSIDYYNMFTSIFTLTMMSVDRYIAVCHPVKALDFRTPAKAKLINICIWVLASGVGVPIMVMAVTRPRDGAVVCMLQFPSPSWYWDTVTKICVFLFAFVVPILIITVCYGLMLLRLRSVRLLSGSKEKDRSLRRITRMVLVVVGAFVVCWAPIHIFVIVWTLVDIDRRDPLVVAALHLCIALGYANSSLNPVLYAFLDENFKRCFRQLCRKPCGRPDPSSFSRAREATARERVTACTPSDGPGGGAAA

The target in assay [1] is T1, human MOR (Homo sapiens, UniProt P35372).
T1 construct: expressed in transfected cells
As to the kind of experiment: [35S]GTPγS binding assay, CHO membranes. It is filed as biochemical.

Assay [2] has as its target T2, human DOR (Homo sapiens, UniProt P41143).
T2 construct: expressed in transfected cells
As to the kind of experiment: [35S]GTPγS binding assay, CHO membranes. It is filed as biochemical.

Where “and” joins values, the source holds several entries; their conditions need not be identical. Identical values can stand only once.

As to DAMGO [reference compound], the “agonist response at MOR, Figure S13a” value in assay [1] (Log [ligand] (M) -5) is 110.2 and 102.8 and 103.1; in assay [1] (Log [ligand] (M) -6) it was 98.6 and 91.7 and 109.2; in assay [1] (Log [ligand] (M) -6.5) it was 90.1 and 100.8 and 91; in assay [1] (Log [ligand] (M) -7), 76.1 and 76 and 90.9; in assay [1] (Log [ligand] (M) -7.5), 70.6 and 49.3 and 71.3; in assay [1] (Log [ligand] (M) -8), 39.6 and 48.5 and 66.2. Also, the “agonist response at MOR, Figure S13a” value in assay [1] (Log [ligand] (M) -8.5) is 33.8; in assay [1] (Log [ligand] (M) -10), 8.2 and 4.9 and 5.

DPDPE: the “agonist response at DOR, Figure S13b” value in assay [2] (Log [ligand] (M) -5) was 99.4 and 102.9 and 94.5; in assay [2] (Log [ligand] (M) -6) it was 101.6 and 102.5 and 107.9; in assay [2] (Log [ligand] (M) -6.5), 101.6 and 91.3 and 92.6; in assay [2] (Log [ligand] (M) -7) it was 95 and 94.9 and 92.5; in assay [2] (Log [ligand] (M) -7.5) it was 69.4 and 66.4 and 73.4; in assay [2] (Log [ligand] (M) -8), 46.7 and 63 and 48.8. The “agonist response at DOR, Figure S13b” value in assay [2] (Log [ligand] (M) -8.5) is 14.9 and 20.6 and 24.6; in assay [2] (Log [ligand] (M) -12), 0. Also, the “Emax (%) DOR” value in assay [2] (relative to DPDPE) is 100%.
